# Screening results deposited in PubChem BioAssay by National Center for Advancing Translational Sciences (NCATS).
# Compounds with a hit are over-represented: about 1.7% of the library has one in this group of screens.
# GLP1R cytotox – cytotoxic in the GLP-1 receptor inverse agonist counter-screen; 410,000 compounds, 0.13% hits; AID 624418; Potency, µM (series often up to 38.3 µM), for inactives: at the highest dose activity change, negative = inhibition, hits mostly inhibitors; HEK293 cAMP-luciferase reporter cells, luminescence, 24 h;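 note: loss of luciferase light is scored as toxicity; potency is the fitted concentration of half-maximal effect; % is set by controls: 0 for no effect and ±100 for the full control effect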
#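 Compound-treated cells are incubated 24 hr at 37 deg C under 5% CO2 after a 12 hour attachment period, then luciferase detection reagent is added and luminescence is measured following 12 min at room temperature; lowered signal indicates toxicity.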
# GLP-1R inv ag – acts as inverse agonist at human GLP-1 receptor; P43220; HEK293 GLP-1R CRE-luciferase, luminescence, 24 h; GLP-1R form is constitutively active; Potency, µM (doses to about 38.3 µM), without a hit: top-dose activity change, negative = inhibition, most hits filed as inhibitors; 410,000 compounds, 1.6% hits; note: potency is the fitted concentration of half-maximal effect; % is set by controls: 0 for no effect and ±100 for the full control effect; nearly all actives have a fitted effect of over 55% in size
#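 HEK293 cells stably co-expressing a cAMP-responsive luciferase reporter and constitutively active GLP-1R were seeded, incubated 12 h, then exposed to compounds for 24 h at 37 C. Luminescence was read 12 min after detection reagent; inverse agonists lower signal.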
# miR-21 reporter – raises the signal of a miR-21 reporter | AID 2288 | 340,000 tested, under 10 active | Potency, µM (series often up to 38.3 µM), without a hit: at the highest dose reporter change, positive = more light | HeLa miR-21 FLuc reporter, luciferase, 48 h; active = well fitted rising curve with a large enough effect; inconclusive = small, poorly fitted or top-dose-only effect; inactive = no such curve, though single readings can be large or run the other way;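 further: % of control where 0% means no effect; miR-21 action dims this reporter so a rising signal means less miR-21 action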
#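 Using DMEM plus 10% FBS, HeLa miR-21-FLuc cells are incubated with test compounds (final up to about 40uM) for 48 hours; firefly luciferase signal is then imaged following reagent-mediated lysis.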
# GLP1R ag – GLP-1 receptor (human) agonism; HEK293 GLP-1R CRE-luciferase, luminescence, 4-6 h; cells express a hypersensitive GLP-1R form; Potency, µM (titrated, usually from 45.6 µM), for the others: at the highest dose activation, actives largely listed as activators; 380,000 compounds, 0.007% hits; note: potency is the fitted concentration of half-maximal effect; % of control where 0% means no effect
# Pin1 inhibitor – human Pin1 inhibition | Potency, µM (doses to about 115 µM), inactives show top-dose activity, negative = inhibition, usual class: inhibitors | AID 504891 | 390,000 compounds, 0.009% hits | Pin1 FP peptide displacement, HiFluor488, 10 min | Q13526; active = well fitted inhibition curve with a large enough effect in the polarisation, with a control signal flat, not every such curve was filed as active; inconclusive = small, poorly fitted or top-dose-only effect, or effect the other way, or a change in a side signal; inactive = no such curve, though single readings can be large or run the other way; the % refers to the polarisation; note: potency is the fitted concentration of half-maximal effect; % is set by controls: 0 for no effect and ±100 for the full control effect
# PTHR1 ag – PTHR1 (human) receptor agonism; Potency, µM (doses to about 115 µM), for inactives: top-dose activation, hits mostly activators; HEK293 GP2 PTHR1 cells, GloSensor cAMP luminescence, 1 h; 410,000 compounds, 0.075% hits; Q03431; note: potency is the fitted concentration of half-maximal effect; nearly all actives have a fitted effect of over 55% in size
#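 HEK-293-derived GP2 cells expressing PTHR1 and a GloSensor cAMP reporter, 3,000/well, plated overnight, given luciferin plus IBMX (each 0.5 mM as added) for 1 h at 37 °C, then compound for 1 h at 37 °C. Luminescence was read after 15 min at room temperature.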
# Starred values were filed as active, the others as inactive; i = inactive; ? = inconclusive; · = not tested or not shown. Unless noted, calls come from the whole dose curve; as a rule, active = well fitted curve in the direction sought with a large enough effect; inconclusive = small, poorly fitted or top-dose-only effect, or another doubt; inactive = no such curve, though single readings can be large; an effect the other way counts as inactive or inconclusive.
# The first 3 records, to show the layout:
no.	compound	GLP1R cytotox	GLP-1R inv ag	miR-21 reporter
1	COc1ccccc1C(=O)NC(=O)Nc1ccc(-c2cc(C(F)(F)F)nn2-c2ccccc2)cc1	-5%	-2%	2%
2	COc1ccccc1C(=O)Nc1ccc(-c2cc(C(F)(F)F)nn2-c2ccccc2)cc1	?	5.6µM*	30%
3	Cc1ccccc1S(=O)(=O)N1[C@@H](c2ccc(Cl)cc2)C(C(=O)O)=CC[C@H]1c1ccc(Cl)cc1	-18%	8.9µM*	·

no.	GLP1R ag	Pin1 inhibitor	PTHR1 ag
1	·	0%	-84%
2	·	2%	i
3	2%	·	-32%

# Results, from the first entry:
no.	compound	GLP1R cytotox	GLP-1R inv ag	miR-21 reporter
1	COc1ccccc1C(=O)NC(=O)Nc1ccc(-c2cc(C(F)(F)F)nn2-c2ccccc2)cc1	-5%	-2%	2%
2	COc1ccccc1C(=O)Nc1ccc(-c2cc(C(F)(F)F)nn2-c2ccccc2)cc1	?	5.6µM*	30%
3	Cc1ccccc1S(=O)(=O)N1[C@@H](c2ccc(Cl)cc2)C(C(=O)O)=CC[C@H]1c1ccc(Cl)cc1	-18%	8.9µM*	·
4	Cc1ccc([C@H]2C(C(=O)O)=CC[C@@H](c3ccc(Cl)cc3)N2S(=O)(=O)c2ccccc2C)cc1	-3%	?	·
5	Cc1ccc(S(=O)(=O)N2[C@@H](c3ccc(C(C)C)cc3)C(C(=O)O)=C[C@H]2C(C)(C)C)cc1	-16%	10µM*	·
6	Cc1ccc([C@H]2C(C(=O)O)=CC[C@@H](c3ccc(C(C)C)cc3)N2S(=O)(=O)c2ccc(C)cc2)cc1	-10%	?	·
7	Cc1ccc(S(=O)(=O)N2[C@@H](c3ccc(Cl)cc3)C(C(=O)O)=CC[C@H]2c2ccc(C(C)C)cc2)cc1	-11%	6.3µM*	·
8	Cc1ccc([C@H]2C(C(=O)O)=C[C@@H](C(C)(C)C)N2S(=O)(=O)c2ccc(C)cc2)cc1	3%	-24%	·

no.	GLP1R ag	Pin1 inhibitor	PTHR1 ag
1	·	0%	-84%
2	·	2%	i
3	2%	·	-32%
4	1%	?	15%
5	1%	-4%	i
6	-5%	·	-49%
7	-3%	·	-33%
8	-5%	7%	-30%

# Next section
no.	compound	GLP1R cytotox	GLP-1R inv ag	miR-21 reporter
9	COc1cccc(N2CCN(C(=O)c3ccc(CS(=O)c4cccc(Cl)c4)o3)CC2)c1 (stereo not given)	?	?	?
10	Cc1ccc(C(=O)NCCNc2ccc([N+](=O)[O-])cc2C(F)(F)F)cc1	?	10µM*	3%
11	CNC(=O)c1nnsc1S(=O)(=O)c1ccc(Cl)cc1	?	4.5µM*	?
12	Cc1cc2c(cc1NC(=O)c1ccccc1C)n(C)c(=O)c(=O)n2C	-3%	11%	3%
13	CN(c1cccc(NC(=O)CN(c2ccc(F)cc2)S(C)(=O)=O)c1)S(C)(=O)=O	-2%	16%	0%
14	CN(c1cccc(NC(=O)CN(c2ccc(C34CC5CC(CC(C5)C3)C4)cc2)S(C)(=O)=O)c1)S(C)(=O)=O	10µM*	3.2µM*	30%
15	COc1ccc(Br)cc1C(C[N+](=O)[O-])c1c(N)n(C)c(=O)n(C)c1=O (stereo not given)	10µM*	?	?
16	C/C(=N\NC(=O)c1ccc(Br)cc1)C1C(=O)c2ccccc2C1=O	10µM*	?	-11%

no.	GLP1R ag	Pin1 inhibitor	PTHR1 ag
9	·	0%	-43%
10	2%	3%	-4%
11	-8%	1%	-28%
12	·	-11%	-32%
13	-1%	-3%	i
14	5%	1%	-4%
15	-2%	?	-35%
16	-8%	-13%	-43%

# Continued:
no.	compound	GLP1R cytotox	GLP-1R inv ag	miR-21 reporter
17	CC1CCN(CC(=O)Nc2ccc(N3CCCCCC3)cc2)CC1	-27%	2.8µM*	-4%
18	CC1CCN(CC(=O)Nc2cccc(C(=O)Nc3cccc(C(F)(F)F)c3)c2)CC1	?	3.2µM*	21%
19	O=C(CN1CCCC1)Nc1ccc(Oc2ccc(NC(=O)CN3CCCC3)cc2)cc1	?	1.8µM*	-2%
20	COc1ccc(NC(=O)CN2CCCC2)cc1	1%	-9%	-10%
21	Cc1ccccc1-c1ccc2c(c1)O[C@@H](CN(C)C(=O)Nc1ccc(C(F)(F)F)cc1)[C@H](C)CN([C@@H](C)CO)S2(=O)=O	-9%	6.3µM*	·
22	CSc1ccc(CCNC(=O)Cn2nc(C)n3c(cc4sccc43)c2=O)cc1	-5%	-12%	0%
23	COC(=O)c1ccc(CCc2cc(O)ccc2O)cc1	10µM*	?	·

no.	GLP1R ag	Pin1 inhibitor	PTHR1 ag
17	23%	2%	i
18	16%	-4%	-15%
19	6%	0%	i
20	9%	-2%	-16%
21	6%	·	-23%
22	·	16%	i
23	-2%	1%	-33%
